Target: T1, NSD2 (Homo sapiens, UniProt O96028)
T1 sequence (O96028 1-1365): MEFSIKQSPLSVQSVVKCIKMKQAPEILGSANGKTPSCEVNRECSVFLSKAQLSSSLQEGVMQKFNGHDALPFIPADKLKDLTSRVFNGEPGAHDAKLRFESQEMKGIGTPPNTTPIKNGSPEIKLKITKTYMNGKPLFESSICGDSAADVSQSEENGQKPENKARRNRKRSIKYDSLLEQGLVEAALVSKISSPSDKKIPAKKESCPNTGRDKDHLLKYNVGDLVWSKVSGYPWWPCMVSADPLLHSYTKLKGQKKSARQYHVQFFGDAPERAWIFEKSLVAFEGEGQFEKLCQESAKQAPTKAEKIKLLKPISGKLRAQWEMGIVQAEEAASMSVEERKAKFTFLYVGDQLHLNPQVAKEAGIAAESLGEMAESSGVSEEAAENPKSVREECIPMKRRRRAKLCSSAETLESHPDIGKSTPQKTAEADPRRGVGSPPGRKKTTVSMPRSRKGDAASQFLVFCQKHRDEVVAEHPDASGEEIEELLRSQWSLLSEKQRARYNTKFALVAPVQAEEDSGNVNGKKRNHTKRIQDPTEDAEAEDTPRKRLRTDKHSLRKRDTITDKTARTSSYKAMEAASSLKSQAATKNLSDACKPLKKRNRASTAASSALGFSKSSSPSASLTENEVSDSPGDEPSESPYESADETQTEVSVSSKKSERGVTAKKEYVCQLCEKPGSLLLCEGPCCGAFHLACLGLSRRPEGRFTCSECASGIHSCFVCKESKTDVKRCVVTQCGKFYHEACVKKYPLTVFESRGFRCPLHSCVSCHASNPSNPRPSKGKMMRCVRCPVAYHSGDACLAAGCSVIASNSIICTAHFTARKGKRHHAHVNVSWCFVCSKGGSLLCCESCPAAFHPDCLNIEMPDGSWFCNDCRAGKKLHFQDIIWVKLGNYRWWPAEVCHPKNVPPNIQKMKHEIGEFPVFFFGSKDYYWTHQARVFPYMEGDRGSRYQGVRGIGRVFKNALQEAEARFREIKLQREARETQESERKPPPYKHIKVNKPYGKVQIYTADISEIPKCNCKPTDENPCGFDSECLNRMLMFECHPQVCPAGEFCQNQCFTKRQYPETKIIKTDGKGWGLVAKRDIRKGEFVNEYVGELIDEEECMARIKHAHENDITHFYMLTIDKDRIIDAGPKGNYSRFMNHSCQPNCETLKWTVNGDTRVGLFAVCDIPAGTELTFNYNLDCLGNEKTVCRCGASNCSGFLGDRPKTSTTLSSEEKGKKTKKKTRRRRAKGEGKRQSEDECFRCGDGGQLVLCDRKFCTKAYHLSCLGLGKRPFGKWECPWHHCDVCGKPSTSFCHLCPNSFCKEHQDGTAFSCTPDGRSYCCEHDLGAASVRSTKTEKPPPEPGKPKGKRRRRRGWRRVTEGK
Assay: biochemical

Work on `Nc1ncnc2c1ncn2[C@@H]1O[C@H](CSCC[C@H](N)C(=O)O)[C@@H](O)[C@H]1O` [SAH, S-(5'-Adenosyl)-L-homocysteine, reference compound] yielded an IC50 of 3.29 µM.
